Data published in PubChem BioAssay AID2778 (National Center for Advancing Translational Sciences (NCATS), 2010).
The entries are a selection whose mix differs from that of the whole data set. Results filed as inconclusive are left out. Calls of active or inactive are those of the source. Calls follow the shape of the dose curve; as a rule, active = well fitted inhibition curve with a large enough effect; inconclusive = small, poorly fitted or top-dose-only effect, or effect the other way; inactive = flat fitted curve, though single readings scatter.

The chains behind the UniProt entries cited, without tags or fusion partners.
UniProt O00255, whole entry, looked up: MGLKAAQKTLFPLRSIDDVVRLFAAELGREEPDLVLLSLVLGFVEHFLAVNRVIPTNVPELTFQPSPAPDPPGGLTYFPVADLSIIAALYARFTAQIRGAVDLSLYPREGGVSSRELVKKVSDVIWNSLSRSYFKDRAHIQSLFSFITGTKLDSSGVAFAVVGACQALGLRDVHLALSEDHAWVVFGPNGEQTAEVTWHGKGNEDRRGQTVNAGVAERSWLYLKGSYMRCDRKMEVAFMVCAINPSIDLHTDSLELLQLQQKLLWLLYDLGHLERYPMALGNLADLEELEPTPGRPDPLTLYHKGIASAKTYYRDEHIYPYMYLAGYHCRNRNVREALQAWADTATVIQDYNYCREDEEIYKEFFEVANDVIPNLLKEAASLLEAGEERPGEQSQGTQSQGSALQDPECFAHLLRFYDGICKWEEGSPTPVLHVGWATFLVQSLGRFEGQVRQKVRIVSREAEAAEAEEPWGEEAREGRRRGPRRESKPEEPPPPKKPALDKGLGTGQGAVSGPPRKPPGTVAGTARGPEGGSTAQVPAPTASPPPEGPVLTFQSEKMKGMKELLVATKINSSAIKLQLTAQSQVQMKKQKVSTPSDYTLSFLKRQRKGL

Target: Menin (Homo sapiens) (UniProt O00255)
Assay: Confirmation of Inhibitors Targeting the Menin-MLL Interaction in MLL Related Leukemias: Confirmation in an HTRF (commercial TR-FRET) Assay using His-tagged menin and biotin-labeled MLL peptide
Settings: His-menin / biotin-MLL peptide binding; at 126 µM (top of the series)
% is scaled to controls: 0 for no effect and ±100 for the full control effect.

O=[As](O)(c1cccs1)c1cccs1
activity change, negative = inhibition: inactive: 4.13%
